These are literature values, as cited in patent US20060062859A1, “Composition and method to optimize and customize nutritional supplement formulations by measuring genetic and metabolomic contributing factors to disease diagnosis, stratification, prognosis, metabolism, and therapeutic outcomes” (priority 2004, published 2006).

The chains behind the UniProt entries cited, without tags or fusion partners.
UniProt P61169, whole entry: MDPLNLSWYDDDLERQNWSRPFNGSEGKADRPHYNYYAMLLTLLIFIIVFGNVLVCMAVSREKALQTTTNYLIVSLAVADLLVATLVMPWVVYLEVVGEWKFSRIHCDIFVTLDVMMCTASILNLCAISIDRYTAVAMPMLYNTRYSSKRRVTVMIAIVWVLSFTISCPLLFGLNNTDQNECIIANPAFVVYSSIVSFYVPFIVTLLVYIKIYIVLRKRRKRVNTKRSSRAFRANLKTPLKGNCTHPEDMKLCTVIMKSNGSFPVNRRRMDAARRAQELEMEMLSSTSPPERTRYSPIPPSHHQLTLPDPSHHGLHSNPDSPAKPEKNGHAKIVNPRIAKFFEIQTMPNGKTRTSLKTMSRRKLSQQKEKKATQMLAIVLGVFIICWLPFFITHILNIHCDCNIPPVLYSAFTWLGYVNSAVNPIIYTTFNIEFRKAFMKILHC

The target in this data set is T1, D2 receptors in the Nacc (Rattus norvegicus, UniProt P61169).
T1 construct: from tissue; host or cells: nucleus accumbens in vivo; study cited from the literature
Particulars: bilateral, nmol/side; cited from earlier work.

In the case of `CCCN1CCC[C@@H]2Cc3n[nH]cc3C[C@H]21` [quinpirole], the “persistent phase of formalin-induced nociception” value is listed as “inhibited”.
